Assay results: patent US11147875B2, “Compositions, combinations and related methods for photoimmunotherapy” (priority 2015, dated 2021)
Entries after “also recorded” stand apart in the source; their conditions may differ. Where two headings read alike, the source gives them in different places.

What was measured:
[1] = tested on: squamous carcinoma of head and neck; assay: Tumor response (RECIST 1.1) after single dose of conjugate and 690 nm light (PIT); assay type: in vivo, human
Method: Each cohort included three (3) patients.
To induce photoimmunotherapy (PIT), one light application with a light having a wavelength of 690 nm was performed at 24 hours±3 hours (Day 2) post conjugate administration. 690 nm light was administered to the tumor via 400 micron glass fiber microlens forward firing fibers for surface illumination of tumors that were less than 10 mm thick, or via cylindrical diffuser fibers placed into the tumor for tumors that were greater than 10 mm thick or for subcutaneous tumors. Light treatment was fixed at a low fluence of 50 J/cm^2 for superficial illumination or 100 J/cm fiber length for interstitial illumination (at a fluence rate of 150 mW/cm^2 for superficial illumination and 400 mW/cm fiber length for interstitial illumination).
The tumor response was evaluated according to the RECIST (Response Evaluation Criteria In Solid Tumors) criteria as outlined in the revised version 1.1 guidelines (RECIST 1.1, see Eisenhauer et al. (2009) European Journal of Cancer, 45:228-247). A response was determined to be a “complete response” (CR) if there was a disappearance of all target lesions, and any pathological lymph nodes (whether target or non-target) were reduced in short axis to <10 mm. A response was determined to be a “partial response” (PR) if there was at least a 30% decrease in the sum of diameter of target lesions (e.g., at least 30% reduction in tumor growth), taking as reference the baseline sum diameters of the target lesions prior to the treatment. The “objective response rate” (ORR) is the percentage of subjects in which a CR or PR response was observed.

BxPC3 cells [2] = assay: Fluorescence of cells stained with cetuximab conjugates with or without secondary antibody, flow cytometry; assay type: cell-based; conditions: 250 ng/mL 1st incubation
BxPC3 cells [3] = assay: In vitro PIT, titration of conjugate at two light doses; assay type: cell-based
Method: (§1) Then, 8 J/cm^2 of 690 nm light was applied to induce PIT. To monitor the progression of cell death after light treatment, the conjugate containing medium was replaced by fresh medium containing CellTox Green (Promega), a dye that reports cell death based on compromised cell membrane integrity. Time dependent increase in cell death was observed over 24 hours. As a control, cell death also was assessed in cells in which cetuximab-IRDye 700DX conjugate was not added (designated “NT”).

BxPC3 cells [4] = assay: Cell staining with dual CTX-IRDye 700DX conjugates, flow cytometry; assay type: cell-based; conditions: excitation 488 nm, emission filter (530 nm/30 nm)
BxPC3 cells [5] = assay: PIT killing by light pre-exposed cetuximab-IRDye 700DX; assay type: cell-based
Staphylococcus aureus = assay: PIT killing of bacteria, colony forming units; assay type: cell-based; conditions: 100 μg/mL, 690 nm laser at 300 J/cm^2
Method: The cells were then illuminated with a 690 nm laser at 0 or 300 J/cm^2. The number of remaining viable bacterial cells was determined by counting colony forming units (CFU) on BHI agar plates under the following conditions. As a control, the number of viable bacterial cells also was assessed in cells treated with cetuximab-IRDye 700DX incubation alone but without laser illumination, laser illumination alone, or untreated. Percent of viable CFU was normalized to bacterial cells with no treatment.

A431 cells = assay: In vitro PIT, CellTox Green cell death; assay type: cell-based
Method: as §1

[6] = Clinical safety of the infusions
EGFR = biological target: T1, EGFR (Homo sapiens, UniProt P00533); assay: In-Cell ELISA of EGF-induced EGFR phosphorylation in A431 cells; assay type: cell-based; conditions: 100 ng/mL EGF
T1 construct: A431 cells (ATCC CRL 1555) were plated in wells of a 96-well plate; host or cells: A431 cells

THP1 cells = assay: PIT killing of Fc receptor-expressing cells; assay type: cell-based, human; conditions: 500 ng/mL, 32 J/cm^2, with or without Fc receptor blocking
Method: THP1 cells (ATCC, TIB-202) grown in complete RPMI 1640 medium were plated at 5000 cells in 100 μL total volume per well in a 96 well tissue culture plate for adherence overnight. The viability of the cells prior to plating was checked via trypan blue exclusion method and >95% cells were viable.
To induce killing, cells in each group were subjected to 690 nm laser light at a dose of 32 J/cm^2. The controls represented wells corresponding to the groups described above but not treated with light. Cell killing was assessed using CellTox Green as described substantially as described Example 6. CellTox Green dye (1×) was added to the wells and cells were incubated for 24 hours at 37° C. in an incubator. The dye was also added to couple of wells just containing 100 μL of the medium for background subtraction later. After the incubation, the tissue culture plate was immediately read on a plate reader. […] The plate was then read again to obtain values for 100% cell death. For each read, the two background wells were averaged and their values subtracted from all other wells. In order to calculate the % cell death for each well, the background subtracted value from the first read was divided by the value from the second read (after lysis), and multiplied by 100.

[7] = single dosage administration, sample patient population

## cetuximab-IRDye 700DX: conjugate containing IRDye 700DX (IR700) linked to cetuximab
[1]; all three cohorts (160, 320, 640 mg/m^2), light at 24 h
  tumor response: partial or complete response; also recorded: rapid and effective tumor response
[1]; evidence of tumor necrosis
  time to observed tumor response: as early as four days
[1]; single dosage treatment, head and neck cancer patients
  objective response rate (ORR): 100%
BxPC3 cells [2]; 2nd incubation 2 μg/mL Don × Hu IRDye 700DX
  Fluorescence: 74,100
BxPC3 cells [2]; no 2nd incubation
  Fluorescence: 36,099
4.0 mg/kg, 160 mg/m^2, single IV infusion
  Cetuximab-IR700 Mean AUC0-24: 770 ± 47.5 µg·h/mL
8.0 mg/kg, 320 mg/m^2, single IV infusion
  Cetuximab-IR700 Mean AUC0-24: 1700 ± 166 µg·h/mL
16.0 mg/kg, 640 mg/m^2, single IV infusion
  Cetuximab-IR700 Mean AUC0-24: 3,690 +/− 1,060 hr*μg/mL
640 mg/m^2
  mean AUC0-24: 3,690 μg/mL*h
  mean AUC0-24 as percent of the extrapolated AUC of 1-month Erbitux treatment: approximately 6%
[7]
  mean systemic exposure (AUC0-24): ~770 ± 47.5 µg·h/mL
  mean systemic exposure (AUC0-inf): about 1810 μg/mL*h
BxPC3 cells [3]; 16 J/cm^2
  half maximal cell death (EC50) from PIT: 0.0226 µg/mL
BxPC3 cells [3]; 32 J/cm^2
  half maximal cell death (EC50) from PIT: 0.0137 µg/mL
BxPC3 cells [4]
  Fluorescence Intensity (AU): 87 AU
BxPC3 cells [5]; all pre-exposed samples, 1 μg/mL, 0 J/cm^2
  cell death: no effect on cell death was observed
BxPC3 cells [5]; pre-exposed to 3,000 Lux-Hours or more white fluorescent light, 32 J/cm^2
  PIT activity: less than 90%
BxPC3 cells [5]; pre-exposed to all lux-hour doses of green light, 32 J/cm^2
  PIT potency: did not result in an effect in PIT potency
Staphylococcus aureus
  viable CFU: statistically significant CFU reduction
A431 cells
  concentration for half maximal cell death vs concentration to block half the phosphorylation: more than 15 times lower
A431 cells; 8 J/cm^2 of 690 nm light
  concentration that led to 90% cell death: 257 ng/mL
A431 cells; 8 J/cm^2 of 690 nm light, 24 hours
  half maximal cell death (EC50) from PIT: 0.0376 µg/mL
[6]; IV infusion over 2 hours
  adverse effects to the infusion: None of the patients showed adverse effects to the infusion
[6]; human, in vivo
  skin photosensitivity to ambient light: No skin photosensitivity to ambient light was detected
EGFR
  IC50, inhibition of EGF-induced EGFR phosphorylation: 0.57 µg/mL
THP1 cells
  cell killing: Fc receptor-specific killing
